Measurements: publication PMC7826790, “Glucose 6-Phosphate Dehydrogenase from Trypanosomes: Selectivity for Steroids and Chemical Validation in Bloodstream Trypanosoma brucei” (Molecules, 2021)
Several values for one entry are separate records, joined by “and”; a condition that tells them apart may be missing. Equal entries are not always repeated.

Protein sequences, listed by entry. Tags and fused reporters are not part of them.
UniProt Q4E0B2, entry or part of it: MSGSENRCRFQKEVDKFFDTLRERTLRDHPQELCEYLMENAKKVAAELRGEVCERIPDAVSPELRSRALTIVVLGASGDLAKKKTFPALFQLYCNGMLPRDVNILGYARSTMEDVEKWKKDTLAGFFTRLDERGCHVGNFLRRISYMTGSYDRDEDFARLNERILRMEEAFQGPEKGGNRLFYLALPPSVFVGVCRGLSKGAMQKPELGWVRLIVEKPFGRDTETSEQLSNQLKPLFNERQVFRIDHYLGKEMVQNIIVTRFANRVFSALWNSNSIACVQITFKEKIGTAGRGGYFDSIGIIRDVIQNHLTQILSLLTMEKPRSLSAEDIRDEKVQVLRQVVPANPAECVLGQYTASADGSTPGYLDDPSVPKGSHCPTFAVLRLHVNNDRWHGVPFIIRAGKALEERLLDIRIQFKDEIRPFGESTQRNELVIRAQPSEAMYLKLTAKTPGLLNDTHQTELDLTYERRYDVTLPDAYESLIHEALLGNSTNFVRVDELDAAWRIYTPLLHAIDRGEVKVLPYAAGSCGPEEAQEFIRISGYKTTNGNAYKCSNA
UniProt P11413, whole entry: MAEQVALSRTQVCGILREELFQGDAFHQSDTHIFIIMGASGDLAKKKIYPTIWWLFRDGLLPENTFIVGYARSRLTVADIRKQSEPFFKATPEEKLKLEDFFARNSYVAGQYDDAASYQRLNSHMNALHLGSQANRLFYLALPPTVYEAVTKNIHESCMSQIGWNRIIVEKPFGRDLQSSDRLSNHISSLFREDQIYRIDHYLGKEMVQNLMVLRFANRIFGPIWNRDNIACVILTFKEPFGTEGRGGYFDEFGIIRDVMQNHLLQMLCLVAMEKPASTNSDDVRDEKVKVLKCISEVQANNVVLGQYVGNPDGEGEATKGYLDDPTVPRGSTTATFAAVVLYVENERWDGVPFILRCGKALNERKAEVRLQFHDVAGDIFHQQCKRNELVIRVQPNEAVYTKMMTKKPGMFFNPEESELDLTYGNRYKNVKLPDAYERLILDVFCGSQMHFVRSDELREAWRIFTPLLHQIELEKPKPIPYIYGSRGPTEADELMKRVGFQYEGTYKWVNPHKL

Legend:
T. cruzi G6PDH = T. cruzi G6PDH (Trypanosoma cruzi, UniProt Q4E0B2); experiment: biochemical; assay type: biochemical; settings: for fold less active against TcG6PDH than the α-Br analogue: 3-acetoxy derivatives, β-Br vs α-Br
Procedure: (§1) E. coli Tuner (DE3) cells were transformed with the pET28a (+) and pHis constructs encoding for N-terminally hexa histidine-tagged TcG6PDHL and HsG6PDH, respectively, and grown overnight in LB medium with […] and […], respectively. […] Thereafter, the cultures were incubated for 20 h at 25 °C and 170 rpm. Cells were harvested by centrifugation (5000× g, 10 min, 4 °C), resuspended in buffer A (50 mM Tris, pH of 8.0, 500 mM NaCl and 5 mM MgCl2) containing a complete™ Protease Inhibitor Cocktail prepared as indicated by the provider (Sigma-Aldrich-Merck, Germany); afterwards, we added 1 mg/mL of lysozyme and incubated the cells for 1 h at 4 °C. […] Protein concentration was determined from the absorbance values at 280 nm and the corresponding theoretical absorbance coefficients.
All reactions were performed in 50 mM Tris (pH 7.5) with 5 mM MgCl2 and 250 mM NaCl in a final volume of 500 µL. […] For each enzyme, a control reaction in the presence of 1% (v/v) DMSO was run. Stock and working solutions of compounds were prepared in 100% (v/v) DMSO. […] The initial velocities were calculated from the first 45 s of the reaction and normalized to the corresponding enzyme control. All measurements were performed at least in triplicate using a Cary 50 Bio spectrophotometer (Agilent Technologies, Santa Clara, CA, USA) at RT. The initial rates were determined with the Origin Pro 8.0 software (OriginLab Corporation, Northampton, MA, USA), and the IC50 values were calculated by nonlinear regression using the GraphPad Prism 5.0 software (GraphPad Inc., San Diego, CA, USA).

[1] = test system: Bloodstream T. b. brucei (strain 427- cell line 514-1313); experiment: Cell viability of bloodstream T. b. brucei (bioluminescent assay); assay type: cell-based, Trypanosoma brucei brucei; settings: DHEA: Hek293T CC50; Conessine: L6 CC50
Procedure: Parasite viability was performed as described in [72]. […] Thereafter, 200 µL from each well were transferred to a 96-well black plate and incubated with 20 µL of a solution containing: 1.5 mg/mL luciferin in PBS glucose 1% (w/v) and Triton X-100.

human G6PDH = biological target: T1, human G6PDH (Homo sapiens, UniProt P11413); experiment: G6PDH enzymatic assay, recombinant human G6PDH (NADPH formation at 340 nm); assay type: biochemical, H. sapiens
T1 construct: hexa-histidine (His6) (N); made in house; host or cells: E. coli Tuner (DE3), pHis vector
Procedure: as §1
G6PDH activity was determined at room temperature (RT) by monitoring NADPH (ε340 = 6220 M^−1 cm^−1) formation at 340 nm. […] The initial velocities were calculated from the first 45 s of the reaction and normalized to the corresponding enzyme control. […] The initial rates were determined with the Origin Pro 8.0 software (OriginLab Corporation, Northampton, MA, USA), and the IC50 values were calculated by nonlinear regression using the GraphPad Prism 5.0 software (GraphPad Inc., San Diego, CA, USA).

What does the source list for `C[C@]12CC[C@H](O)C[C@@H]1CC[C@@H]1[C@@H]2CC[C@]2(C)C(=O)[C@H](Br)C[C@@H]12` [Compound 1, 16α-bromo-epiandrosterone]?
IC50 (T. cruzi G6PDH): 0.053 ± 0.002 µM; fold higher inhibitory activity against TcG6PDH compared to the parent molecule (EA or DHEA) (T. cruzi G6PDH): 56 fold; Selectivity Index (CC50 for murine macrophages/EC50 for T. brucei) [1]: 4.6; fold less active against the human enzyme than the unmodified steroids (human G6PDH): 2- to 4 fold

Which “Selectivity Index (CC50 for murine macrophages/EC50 for T. brucei)” value (from here on “Selectivity Index”) [1] does the source give for `CC(=O)O[C@H]1CC[C@@]2(C)[C@@H](CC[C@@H]3[C@@H]2CC[C@]2(C)C(=O)[C@H](Br)C[C@@H]32)C1` [Compound 2] here?
Its value is 8 and 7.9.

With `CC(=O)O[C@H]1CC[C@@]2(C)[C@@H](CC[C@@H]3[C@@H]2CC[C@]2(C)C(=O)[C@@H](Br)C[C@@H]32)C1` [Compound 3] as the compound, how does the “fold less active against TcG6PDH than the α-Br analogue” value (T. cruzi G6PDH) read?
Its value is 13 fold.

What about the “Selectivity Index” value [1] of the same compound?
The value was 0.2.

Which results are given for `C[C@]12CC[C@H](O)CC1=CC[C@@H]1[C@@H]2CC[C@]2(C)C(=O)[C@H](Br)C[C@@H]12` [Compound 4]?
IC50 (T. cruzi G6PDH): 3.3 ± 0.7 µM; fold higher inhibitory activity against TcG6PDH compared to the parent molecule (EA or DHEA) (T. cruzi G6PDH): 7 fold; Selectivity Index (CC50 for murine macrophages/EC50 for T. brucei) [1]: 2.5; fold less active against the human enzyme than the unmodified steroids (human G6PDH): 2- to 4 fold

Which “Selectivity Index” value [1] does the source give for `CC(=O)O[C@H]1CC[C@@]2(C)C(=CC[C@@H]3[C@@H]2CC[C@]2(C)C(=O)[C@H](Br)C[C@@H]32)C1` [Compound 5] here?
The value was 2.2.

For `CC(=O)O[C@H]1CC[C@@]2(C)C(=CC[C@@H]3[C@@H]2CC[C@]2(C)C(=O)[C@@H](Br)C[C@@H]32)C1` [Compound 6], which “fold less active against TcG6PDH than the α-Br analogue” value (T. cruzi G6PDH) is on record?
Its value is over 600 fold.

And the “Selectivity Index” value [1]?
Its value is 0.9.

For `C[C@]12CC[C@H](O)CC1=CC[C@@H]1[C@@H]2CC[C@]2(C)C(=O)C(O)C[C@@H]12` (stereo partly shown) [Compound 7], which IC50 (T. cruzi G6PDH) is on record?
The IC50 was over 50 µM.

With `C[C@]12CC[C@H](O)CC1=CC[C@@H]1[C@@H]2CC[C@]2(C)C(=O)CC[C@@H]12` [DHEA, dehydroepiandrosterone] as the compound, how does the “Selectivity Index” value [1] read?
The value was 0.6.
